Assays:
[1] = Selectivity ratio of IC50 for BRD3-BD1 (unknown origin) to IC50 for BRD4-BD2 (unknown origin)
[2] = Selectivity ratio of IC50 for BRD4-BD1 (unknown origin) to IC50 for BRD4-BD2 (unknown origin)
[3] = Selectivity ratio of IC50 for BRD4-BD1 (unknown origin) to IC50 for BRD3-BD2 (unknown origin)
[4] = Selectivity ratio of IC50 for BRD3-BD1 (unknown origin) to IC50 for BRD3-BD2 (unknown origin)
[5] = Selectivity ratio of Kd for 6His-tagged BRD3-BD1 (unknown origin) to Kd for 6His-tagged BRD3-BD2 (unknown origin)

Structure (SMILES)	Selectivity ratio [1]	Selectivity ratio [2]	Selectivity ratio [3]	Selectivity ratio [4]	Selectivity ratio [5]
CC(=O)OC[C@]12CC[C@H]3[C@@H](C[C@H]4O[C@]45CC=CC(=O)[C@]35C)[C@]1(O)[C@@H](OC(C)=O)C[C@@]2(O)[C@@](C)(O)[C@H]1CC(C)=C(C)C(=O)O1	30	30	30	30	
CC(=O)OC[C@]12CC[C@H]3[C@@H](CC=C4CC=CC(=O)[C@@]43C)[C@]1(O)CC[C@@]2(O)[C@@](C)(O)[C@H]1CC(C)=C(C)C(=O)O1	30	30	30	30	
CC(=O)OC[C@]12CC[C@H]3[C@@H](C[C@@H]4O[C@@]45CC=CC(=O)[C@]35C)[C@]1(O)CC[C@@]2(O)[C@@](C)(O)[C@H]1CC(C)=C(C)C(=O)O1	30	30	30	30	
CC(=O)OC[C@]12CC[C@H]3[C@@H](C[C@H]4O[C@]45CC=CC(=O)[C@]35C)[C@]1(O)CC[C@@]2(O)[C@@](C)(O)[C@H]1CC(C)=C(C)C(=O)O1					10
CC(=O)OC[C@]12CC[C@H]3[C@@H](C[C@H]4O[C@]45CCCC(=O)[C@]35C)[C@]1(O)CC[C@@]2(O)[C@@](C)(O)[C@H]1CC(C)=C(C)C(=O)O1	30	30	30	30	
